Measurements reported in PubChem BioAssay AID373 (The Scripps Research Institute Molecular Screening Center, 2006).
Only a part is listed here, and it is no random draw. Some of these compounds have results that are not shown, active ones among them. Calls of active or inactive are those of the source.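 How the source made its calls: active means activation above the screen-wide mean plus 3 SD (cut at about 4.5% in these data, passing the limit was not always enough); inactive means the rest, inconclusive results apart.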

By UniProt entry, the sequences of proteins in these tests, tags left out.
UniProt Q99500, whole entry: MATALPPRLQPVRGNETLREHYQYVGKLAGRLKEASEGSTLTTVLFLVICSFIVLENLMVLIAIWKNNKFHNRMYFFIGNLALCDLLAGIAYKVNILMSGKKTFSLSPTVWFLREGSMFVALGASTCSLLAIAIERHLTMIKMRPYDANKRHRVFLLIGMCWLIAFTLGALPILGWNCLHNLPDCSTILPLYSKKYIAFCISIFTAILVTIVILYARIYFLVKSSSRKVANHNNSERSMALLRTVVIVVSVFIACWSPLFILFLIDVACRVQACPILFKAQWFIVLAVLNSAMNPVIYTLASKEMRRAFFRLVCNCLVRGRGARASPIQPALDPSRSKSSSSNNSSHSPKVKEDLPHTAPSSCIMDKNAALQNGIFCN

Each compound was assayed against Sphingosine 1-phosphate receptor 3 (Homo sapiens) (UniProt Q99500) (assay: activators of S1P3 receptor signaling – cell-based, primary and confirmation, NFAT-BLA reporter, primary screen (AID 373)). Conditions: S1P3 NFAT-BLA reporter cells, agonism, FRET ratio; at 4.5 µM; stronger effect = higher value; relative to 1 µM S1P, basal subtracted.
In the case of `O=C(OC1CN2CCC1CC2)C(CO)(c1ccccc1)c1ccccc1` (configuration not stated), the activation is reported as inactive: -0.3%.
For `CN(C)c1cccc(C(=O)NCC2(N(C)C)CCCCC2)c1`, the activation was inactive: -0.7%.
